Measured values published in patent US6740635B2, “Antiviral linear polymers” (Biomolecular Research Institute Ltd., priority 1996, dated 2004).

System: uninfected cells

Dextran Sulfate [DS5000 Dextran Sulfate]
CC50: >250 µg/mL
